Source: PubChem BioAssay
In the library only some 0.62% were active in any assay of this set; here they are far more common.
Epigenetic reg: epigenetic control regulation, reporter derepression | AID 1865 | 280,000 tested, 0.2% active | Potency, µM (doses to about 53.9 µM), inactives show at the highest dose GFP activation, most hits filed as activators | murine LDR cells, GFP reporter derepression, 30 h; further: potency means the concentration at half of the fitted maximal effect; % of control where 0% means no effect; nearly all actives have a fitted effect of over 60% in size
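Reporter derepression read as number of fluorescent GFP-positive objects, 20-120 um in size, counted by laser-scanning cytometer. Mouse LDR line with an epigenetically silenced CMV-GFP locus; compound incubation 30 h, 37 C.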
PINK1 expr mod: PINK1 expression modulation | PINK1 immunofluorescence, high-content cytometry, 24 h | Potency, µM (titrated, usually from 76.6 µM), inactives show top-dose activation (PINK1 increase), usual class: activators | 410,000 tested, 0.2% active; active means well fitted activation curve with a large enough effect; inconclusive means small, poorly fitted or top-dose-only effect; cell line not stated here; further: potency means the concentration at half of the fitted maximal effect; % of control where 0% means no effect; nearly all actives have a fitted effect of over 65% in size
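Fluorescence from anti-PINK1 antibody, together with nuclear and cell stains, was scanned on a laser-scanning cytometer. Before staining, stable-line cells were incubated 24 hours with compounds at 5 concentrations; primary antibody 12 h at 10 degrees C.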
miR-21 FLuc: raises the signal of a miR-21 reporter | AID 2288 | 340,000 tested, under 10 active | Potency, µM (series often up to 38.3 µM), without a hit: at the highest dose reporter change, positive = more light | HeLa miR-21 FLuc reporter, luciferase, 48 h; active = well fitted rising curve with a large enough effect; inconclusive = small, poorly fitted or top-dose-only effect; inactive = no such curve, though single readings can be large or run the other way;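 further: % of control where 0% means no effect; miR-21 action dims this reporter so a rising signal means less miR-21 action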
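Luminescence from a firefly luciferase reporter carrying a miR-21 binding site downstream, stably expressed under a CMV promoter in HeLa cells that make miR-21 endogenously, reports miRNA modulation after 48 h compound exposure up to approximately 40uM final.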
uPA surface inh: inhibitors of cell surface uPA generation; 330,000 tested, 0.31% active; AID 540303; cell surface uPA generation assay, qHTS; Potency, µM (top dose mostly 38.3 µM), for inactives: top-dose activity change, negative = inhibition, most hits filed as inhibitors; active means well fitted inhibition curve with a large enough effect; inconclusive means small, poorly fitted or top-dose-only effect; inactive means no such curve, though single readings can be large or run the other way; tested in mouse RAW 264.7 cells; further: potency means the concentration at half of the fitted maximal effect; on the % scale 0 is the no-effect control and ±100 the full control effect; nearly all actives have a fitted effect of over 55% in size
p53 reactivator: re-activators of mutant p53. H1299 p53-A138V BP100-luciferase reporter, luminescence, 24 h. Potency, µM (top dose mostly 92.2 µM), inactives show at the top dose activity change, positive = activation, usual class: activators. 320,000 tested, 0.063% active. AID 504706; further: potency means the concentration at half of the fitted maximal effect; % of control where 0% means no effect; nearly all actives have a fitted effect of over 45% in size
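p53-null H1299 cells stably carrying temperature-sensitive p53-A138V and a BP100-luciferase reporter were pinned with compounds (4-point, 1:5 series) and held 24 hrs at 37 deg C. Luminescence was read 10 min after detection reagent.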
IL-2 act: IL-2 activation. IL-2 activation reporter assay, cell-based qHTS; stimulated with anti-CD3/CD4/CD28 beads; in transgenic mouse T cells. activation, % (series mostly up to about 46 µM). 360,000 tested, 0.065% active. AID 652025; in the data active means activation above about 50%; inconclusive means mostly about 30% to 49%; further: 0% is about no effect
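Quantitative HTS in unstimulated transgenic mouse T cells, with memory T cells as non-tolerant control and PMA/ionomycin as tolerance-bypass control. Compound pretreatment lasted 60 minutes before 18 h bead stimulation; EGFP/DsRed fluorescence read.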
Numbers without * were called inactive; u = inconclusive; x = not tested or not shown; [ ] = remark or other dose. Unless noted, the call rests on the fitted dose curve; in most records, active means well fitted curve in the direction sought with a large enough effect; inconclusive means small, poorly fitted or top-dose-only effect, or another doubt; inactive means no such curve, though single readings can be large; an effect the other way counts as inactive or inconclusive.

SMILES	Epigenetic reg	PINK1 expr mod	miR-21 FLuc	uPA surface inh	p53 reactivator	IL-2 act
Cc1oc(-c2cccc(C(F)(F)F)c2)nc1CN1CCOCC1	11µM*	2%	-49%	0%	13%	0
COc1ccc(CN2CCN(C(C)=O)CC2)cc1OC1CCN(C(=O)c2ccc3[nH]c(C)c(C)c3c2)CC1	x	-1%	x	x	x	x
Oc1[nH]c2ccccc2c1N=Nc1ccccc1Cl	x	32µM*	x	-2%	x	u
NC(=O)c1ccc(NCCc2ccccc2)c([N+](=O)[O-])c1	0%	2%	-42%	-20%	16%	1
O=C(Nc1ccccc1)c1ccc(NCCc2ccccc2)c([N+](=O)[O-])c1	13µM*	u	-10%	2%	19%	7
COc1ccccc1C(=O)Nc1ccccc1SC(=O)c1ccccc1OC	x	-2%	0%	u	13µM*	-2
COC(=O)c1ccccc1NC(=O)c1ccccc1OC	-4%	3%	-8%	-7%	0%	0
Cc1ccc(/C=C2/NC(=O)N(Cc3ccccc3)C2=O)s1	25µM*	14µM*	-22%	-9%	15%	159*
Cc1ccc(NC(=O)CN2C(=O)N/C(=C/c3ccc(C)s3)C2=O)cc1	u	23%	-20%	2%	u	53*
Cc1cccc(CN2C(=O)N/C(=C/c3ccc(C)s3)C2=O)c1	u	7%	14%	-10%	15%	14
Cc1ccc(NC(=O)CN2C(=O)N/C(=C/c3ccc(C)o3)C2=O)cc1	u	4%	-2%	-5%	3%	0
CC(Oc1ccc(Br)cc1)C(=O)NCc1cccnc1 (stereo not drawn)	-4%	x	x	x	x	x
Cc1cccc(CNC(=O)c2c3n(c(C)cc2=O)-c2ccccc2SC(c2sccc2C)C3)n1 (stereo not drawn)	x	0%	x	x	x	x
O=C(Nc1cccc(C(=O)OCc2cc(=O)n3nc(C4CC4)sc3n2)c1)c1cccc(Cl)c1	16µM*	0%	-12%	x	x	x
Nc1c(C(=O)c2ccccc2)sc(Nc2ccc(Cl)c(Cl)c2)c1C(=O)Nc1ccccc1	0%	16µM*	u	x	x	x
Cc1ccccc1Nc1sc(C(=O)c2ccccc2)c(N)c1C(=O)NCc1ccc(Cl)cc1	-1%	16µM*	u	x	x	x
Cc1ccc(Nc2sc(C(=O)c3ccccc3)c(N)c2C(=O)Nc2ccc(Cl)cc2)cc1	-1%	40µM*	u	x	x	x
Cc1nc(Nc2ccc(Cl)c(Cl)c2)sc1C(=O)Nc1ccccc1	0%	-2%	23%	15%	28%	-3
COc1ccc(CNC(=O)c2c(Nc3ccccc3C)sc(C(=O)c3ccccc3)c2N)cc1	0%	u	u	x	x	x
CCOc1ccc(NC(=O)c2c(Nc3ccc(OC)cc3OC)sc(C(=O)c3ccc(Cl)cc3)c2N)cc1	0%	5%	0%	x	x	x
CC(C)C(=O)NCC1CCC2(CCN(Cc3ccc(-c4cccc(Cl)c4)o3)CC2)O1 (stereo not drawn)	x	1%	x	x	x	x
OCCN1CCN(Cc2ccc3c(c2)CN(Cc2cc4ccccc4o2)CCO3)CC1	x	-1%	x	x	x	x
O=C(Cc1c(F)cccc1Cl)Nc1ccon1	-1%	7.9µM*	-3%	-7%	3%	-1
Cc1cc(NC(=O)Cc2c(F)cccc2Cl)no1	-8%	0%[38.3 µM]	1%	-12%	-7%	-2
COc1ccc(OC)c(CN2CCCC(c3nc(-c4ccncc4)ncc3-c3ccccc3C)C2)c1 (stereo not drawn)	x	1%	x	x	x	x
O=C(c1ccc(Cl)c(S(=O)(=O)N2CCOCC2)c1)N(Cc1ccco1)Cc1cccs1	x	0%	x	1.1µM*	-10%	-1
O=C(NCc1nnc2n1CCN(Cc1cccc(C(F)(F)F)c1)CC2)c1ccncc1	x	0%	x	x	x	x
O=C(Nc1ccc(OCC(F)(F)C(F)F)c(C(F)(F)F)c1)c1ccccc1	x	2%	x	-3%	x	0
O=C(Nc1ccc(OCC(F)(F)C(F)F)c(C(F)(F)F)c1)c1ccccc1O	-1%	16µM*	24%	-13%	5%	-1
COc1ccc(C(=O)CC(=O)c2ccccc2)cc1	x	1%	x	-2%	x	-2

Individual results from the results shown:
Cc1cc(NC(=O)Cc2c(F)cccc2Cl)no1 in IL-2 act has -2
Cc1ccc(/C=C2/NC(=O)N(Cc3ccccc3)C2=O)s1 in p53 reactivator has 15%
CC(Oc1ccc(Br)cc1)C(=O)NCc1cccnc1 (stereo not drawn) in Epigenetic reg has -4%
COC(=O)c1ccccc1NC(=O)c1ccccc1OC in miR-21 FLuc has -8%
Nc1c(C(=O)c2ccccc2)sc(Nc2ccc(Cl)c(Cl)c2)c1C(=O)Nc1ccccc1 in Epigenetic reg has 0%

Shown as a hit in uPA surface inh, of those listed so far:
molecule | Epigenetic reg | PINK1 expr mod | miR-21 FLuc | uPA surface inh | p53 reactivator
O=C(c1ccc(Cl)c(S(=O)(=O)N2CCOCC2)c1)N(Cc1ccco1)Cc1cccs1 | x | 0% | x | 1.1µM* | -10%
